Laboratory results from patent US11045519B2, “Arginine-rich polypeptide compositions and methods of using same” (UNM Rainforest Innovations, priority 2017, dated 2021).

Test system: HPV16 pseudovirions (PsVs)
Details: read-out: IC50 of HPV16 PsV infection of HaCaT cells; pretreatment before PsV exposure, 24 h, two independent duplicate experiments

With `N=C(N)NCCC[C@H](NC(=O)[C@H](CCCNC(=N)N)NC(=O)[C@H](CCCNC(=N)N)NC(=O)[C@H](CCCNC(=N)N)NC(=O)[C@H](CCCNC(=N)N)NC(=O)[C@H](CCCNC(=N)N)NC(=O)[C@H](CCCNC(=N)N)NC(=O)[C@H](CCCNC(=N)N)NC(=O)[C@@H](N)CCCNC(=N)N)C(=O)O` [R9, arginine nonapeptide] the IC50 was 1550 nM.
